As a reminder, the Kd is the free concentration of one partner at which half of the binding sites on the other are occupied at equilibrium, for simple one-to-one binding. Low values mean higher affinity, high ones lower affinity.

The chains behind the UniProt entries cited, without tags or fusion partners. A line that says so, or that is headed by a name, gives the form on record, which may keep a tag or linker.
UniProt Q03173, other isoform, or with tags, fused parts or gaps limits assumed: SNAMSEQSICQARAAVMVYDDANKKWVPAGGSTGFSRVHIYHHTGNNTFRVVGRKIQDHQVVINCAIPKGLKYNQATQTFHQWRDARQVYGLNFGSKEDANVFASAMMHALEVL

For the test, the target named is T1, ENAH EVH1 domain (monomeric, wild type) (human, UniProt Q03173 1-111 (mouse entry)).
T1 construct: ENAH residue numbers in the text count from the Met at position 25 of this entry; also called ENAH EVH1 WT; Mena EVH1 WT
Kind of test: BLI, steady state; SUMO-peptide immobilised, EVH1 monomer in solution. On the technique in general: In BLI a coated tip is dipped into the sample, and binding shifts an interference pattern.

B1: ABI1 b peptide (peptide)
peptide: MAGGLNDIFEAQKIEWHEDTGGSSHHHHHHGSGSGSDSEVNQEAKPEVKPEVKPETHINLKVSDGSSEIFFKIKKTTPLRRLMEAFAKRQGKEMDSLTFLYDGIEIQADQTPEDLDMEDNDIIEAHREQIGGSGSGFDDFPPPPPPPPVDYEDEEAAV
modifications: biotinylated (BAP tag)
notes: ABI1 truncation, tested as a SUMO fusion
B1 gave a Kd of 3.93 µM.
